According to ChEMBL document CHEMBL6134819, “Discovery of novel tranylcypromine-indazole-based derivatives as LSD1 inhibitors for acute myeloid leukemia treatment” (Eur J Med Chem, 2025):

Columns and labels:
Homo sapiens [1] = species: Homo sapiens; test: Selectivity ratio of IC50 for human N-terminal Flag-tagged MAOA to IC50 for human recombinant LSD1 (852 residues)
Homo sapiens [2] = species: Homo sapiens; test: Selectivity ratio of IC50 for human ERG to IC50 for human recombinant LSD1 (852 residues)
Homo sapiens [3] = species: Homo sapiens; test: Selectivity ratio of IC50 for human N-terminal Flag-tagged MAOB to IC50 for human recombinant LSD1 (852 residues)

Ratio IC50 (Homo sapiens [1]): 85.2
Ratio IC50 (Homo sapiens [2]): 58.4
Ratio IC50 (Homo sapiens [3]): 269
Structure (SMILES): Cl.O=S(=O)(c1ccccc1)n1ncc2cc(-n3cc(CN[C@@H]4C[C@H]4c4ccc(F)c(F)c4)nn3)ccc21
